Test results reported in patent publication US20220411487A1.

Assays:
[1] = target: full-length mouse TMPRSS6 with a C-terminal triple myc tag on HEK293.hHJV cells (HEK293.hHJV/3xMyc.mTMPRSS6) (mouse) (UniProt Q9DBI0); assay: cell-based or functional assay
[2] = target: full length human TMPRSS6 with a C-terminal triple myc tag on HEK293.hHJV cells (HEK293.hHJV/3xMyc.hTMPRSS6) (human) (UniProt Q8IU80); assay: cell-based or functional assay

## Aprotinin (from UniProt P00974 36-93)
[1]
  Geometric Mean Fluorescence Intensity of cell surface hHJV: 26700
  Inhibition (%) of soluble hHJV release (ELISA): > 99%
  Median Fluorescence Intensity of cell surface hHJV: 38100
[2]
  Geometric Mean Fluorescence Intensity of cell surface hHJV: 42300
  Inhibition (%) of soluble hHJV release (ELISA): > 99%
  Median Fluorescence Intensity of cell surface hHJV: 58100
